System: MLO-Y4 osteocytes
Assay: High-throughput drug screening of primary cilia length and incidence
Format: cell-based
Protocol: MLO-Y4 osteocytes were maintained on collagen I-coated dishes in MEMα (Life_Technologies) supplemented with 5% fetal bovine serum (FBS), 5% calf serum (CS), and 1% penicillin/streptomycin (P/S) at 37° C. and 5% CO2. Osteocytes were then seeded onto 384-well collagen-coated plates for 72 hours before fixation. […] These libraries include Tocris, Sigma LOPAC, Selleck Chemical, Prestwick, and Spectrum commercially available compound libraries. All cell seeding and plate handling was performed with the Perkin Elmer cell:explorer workstation.
Cells were fixed in 4% paraformaldehyde and permeabilized with 0.1% Triton-X 100 (Sigma). 10% goat serum (vendor) was used for blocking. Cilia were stained using a monoclonal antibody against acetylated α-tubulin (1:20) from a C3B9 hybridoma cell line, and visualized with A F488 (1:1000, ThermoFisher). Nuclei were visualized with Hoechst. Cells were imaged using a GE INCell 2000 high-throughput imager at 40× magnification. 4 fields of view were taken per well.
Each pair of nuclei and cilia images was first analyzed individually, then the entire population was examined to evaluate each compound's effect on cilia length and incidence. […] The augmentation of the algorithm incorporates thresholding for noise removal based on signal intensity and object size, nuclei dilation to exclude non-cellular artifacts, as well as skeletonization of cilia to quantify length. […]

| Compound | Average Length SD Away [SD] | Average Incidence SD Away [SD] |
| --- | --- | --- |
| O=[N+]([O-])c1ccc(-c2nc(-c3ccncc3)c(-c3ccc(F)cc3)[nH]2)cc1 [PD 169316] | 3.454 | – |
| C[C@@H](O)[C@H]1C(=O)N2C(C(=O)OCOC(=O)C(C)(C)C)=C(SC3CN(C4=NCCS4)C3)[C@H](C)[C@H]12 [Tebipenem pivoxil (L-084), Tebipenem pivoxil] | – | 1.857 |

From patent US20190015423A1, “REGULATION OF GENE EXPRESSION BY MODULATING PRIMARY CILIA LENGTH” (THE TRUSTEES OF COLUMBIA UNIVERSITY IN THE CITY OF NEW YORK, priority 2016, published 2019)
